What was measured:
BRD4 = BRD4 (Homo sapiens, UniProt O60885); test: X-ray crystal structure; BROMOscan affinity
BRPF1 = BRPF1 (Homo sapiens, UniProt P55201); test: X-ray crystal structure; BROMOscan affinity

By UniProt entry, the sequences of proteins in these tests, tags left out. Residues count along the entry.
UniProt P55201, 625-740 limits assumed: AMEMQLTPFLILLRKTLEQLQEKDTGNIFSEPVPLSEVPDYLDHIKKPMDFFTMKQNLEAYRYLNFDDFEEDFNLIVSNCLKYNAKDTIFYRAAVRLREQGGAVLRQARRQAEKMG

Kd (BRD4): 3400 nM | Kd (BRPF1): 1400 nM
SMILES: CC(=O)c1c(C)[nH]c(-c2csc(N3CCNCC3)n2)c1CCC(C)C

From paper PMC11521936
